Patent US8664236B2, “1H-pyrrolo[2,3 b]-pyridine derivatives” (Merck Patent GmbH, priority 2010, dated 2014)

Chains of the proteins cited; added tags and fusions are not shown. Lines headed by an entry give the natural chain unless they say otherwise; changes in a name come on top. Residues count along the entry.
UniProt O15530, 51-556: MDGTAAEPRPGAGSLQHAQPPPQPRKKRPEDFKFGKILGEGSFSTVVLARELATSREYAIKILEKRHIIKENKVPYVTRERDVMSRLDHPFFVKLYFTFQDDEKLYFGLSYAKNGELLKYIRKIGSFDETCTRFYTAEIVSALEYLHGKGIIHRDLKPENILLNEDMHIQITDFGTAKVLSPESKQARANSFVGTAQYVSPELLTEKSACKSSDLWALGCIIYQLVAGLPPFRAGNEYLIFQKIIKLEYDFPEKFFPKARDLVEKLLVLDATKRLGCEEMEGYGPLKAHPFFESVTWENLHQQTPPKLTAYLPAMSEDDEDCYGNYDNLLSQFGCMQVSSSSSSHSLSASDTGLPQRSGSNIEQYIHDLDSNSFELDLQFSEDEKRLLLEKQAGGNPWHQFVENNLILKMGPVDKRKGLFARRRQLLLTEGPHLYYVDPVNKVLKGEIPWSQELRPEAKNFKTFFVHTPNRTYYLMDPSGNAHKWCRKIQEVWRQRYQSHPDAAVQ

How the values were obtained:
[1] = biological target: PDK1 kinase in PC3 cells (PKB phosphorylation at Thr 308) (Homo sapiens (Human), UniProt O15530); assay: Cellular testing of PDK1 kinase inhibitors in PC3 cells (Luminex, phospho-T308-PKB); type: cell-based; details: PKB phosphorylation at Thr 308 in PC3 cells
Procedure: Method for the Cellular Testing of PDK1 Kinase Inhibitors in PC3 Cells
The cellular assay for the determination of the PDK1 kinase activity is carried out as a Luminex assay in the 96-well format. PC3 cells are sown at 20,000 cells per well in 100 μl of medium (45% of […]/45% of Ham's F12/10% of FCS) and incubated on the following day for 30 min with a serial dilution of the test substance (7 concentrations) under serum-free conditions. The cells are subsequently lysed using 90 μl of lysis buffer (20 mM tris/HCl pH 8.0, 150 mM NaCl, 1% of NP40, 10% of glycerol, 1% of phosphatase inhibitor I, 1% of phosphatase inhibitor II, 0.1% of protease inhibitor cocktail III, 0.01% of benzonase) per well, and the lysates are separated off from insoluble cell constituents by means of centrifugation through a 96-well filter plate (0.65 μm). The lysates are incubated overnight at 4° C. with shaking with Luminex beads to which an anti-total PKB antibody is coupled. The detection is carried out on the following day by addition of a phospho-T308-PKB antibody and a species-specific peroxidase-labelled secondary antibody. […] The values of the batches treated with test substance are calculated therefrom as percentage of control, and IC50 values are determined by means of RS1.

[2] = biological target: PDK1 (His6-PDK1(Δ1-50)) (Homo sapiens (Human), UniProt O15530); assay: Test for the inhibition of PDK1 (enzymatic, flashplate, 33P-ATP); type: biochemical; details: enzymatic PDK1 inhibition assay
Procedure: 4. Test for the Inhibition of PDK1
The experimental batches are carried out in a flashplate system with 384 wells/microtitration plate.
In each case, the PDK1 sample His6-PDK1(Δ1-50) (3.4 nM) (“His6” disclosed as SEQ ID NO: 2), the PDK1 substrate biotin-bA-bA-[…]-IADWC (SEQ ID NO: 3) (400 nM), 4 μM ATP (with 0.2 μCi of ^33P-ATP/well) and the test substance in 50 μl of conventional experimental solution per well are incubated at 30° C. for 60 min. The test substances are employed in corresponding concentrations (if desired in a dilution series). The control is carried out without test substance. The reaction is stopped using standard methods and washed. The activity of the kinase is measured via the incorporated radioactivity in top count. […]
The radioactivity (decompositions per minute) of the blank value (no use of test substance in the presence of staurosporine) is subtracted from all other radioactivity values. The controls (kinase activity without test substance) are set equal to 100 percent and all other radioactivity values (after subtracting the blank value) are expressed set in relation thereto (for example in % of the control).
IC50 values (50% inhibition) are determined with the aid of statistics programmes, such as, for example, RS1.

| Molecule | IC50 [1] | IC50 [2] |
| --- | --- | --- |
| 3-({2-Amino-6-[5-(1-methyl-1H-pyrazol-4-yl)-1H-pyrrolo[2,3-b]-pyridin-3-yl]pyrimidin-4-yl}phenylamino)propionamide [A35] | 23 µM | 17 nM |
| CC(C)n1cc(-c2cnc3[nH]cc(-c4cc(N(CCO)c5ccccc5Cl)nc(N)n4)c3c2)cn1 [A15, 2-[{2-Amino-6-[5-(1-isopropyl-1H-pyrazol-4-yl)-1H-pyrrolo[2,3-b]pyridin-3-yl]pyrimidin-4-yl)-(2-chlorophenyl)amino]-ethanol] | – | 17 nM |
